The values that follow come from patent publication US20260158009A1 (GENZYME CORPORATION, priority 2023, published 2026).

By UniProt entry, the sequences of proteins in these tests, tags left out. Residues count along the entry.
UniProt Q13546, 1-375 limits assumed: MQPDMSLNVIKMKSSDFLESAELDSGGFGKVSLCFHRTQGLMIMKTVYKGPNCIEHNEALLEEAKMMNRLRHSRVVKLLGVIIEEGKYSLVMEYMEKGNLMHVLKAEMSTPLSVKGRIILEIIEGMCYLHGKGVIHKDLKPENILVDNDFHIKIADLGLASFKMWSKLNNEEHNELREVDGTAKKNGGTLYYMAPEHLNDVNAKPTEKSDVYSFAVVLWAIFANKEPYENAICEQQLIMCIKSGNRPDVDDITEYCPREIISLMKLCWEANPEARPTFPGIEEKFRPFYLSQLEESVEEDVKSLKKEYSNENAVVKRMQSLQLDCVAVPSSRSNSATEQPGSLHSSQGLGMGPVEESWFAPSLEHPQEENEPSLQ

Structures are written as SMILES.

Test [1] has as its target hRIPK1 (aa 1-375) fusion protein (Homo sapiens, UniProt Q13546). Put plainly: ADP-Glo kinase assay: catalytic activity of RIPK1 (autophosphorylation, conversion of ATP to ADP). The conditions noted are these: read-out: ADP Glo assay IC50. How it is done: The catalytic activity of RIPK1 was measured by monitoring the conversion of Adenosine triphosphate (ATP) to Adenosine diphosphate (ADP) due to autophosphorylation using an ADP-Glo kinase kit (Promega, catalog no. V9104).
In detail, 2 μl recombinantly produced hRIPK1 (aa 1-375) fusion protein (end concentration 3.6 μg/ml) and 2 μl compound (end concentration 33300-1.69 nM; DMSO end concentration 1%) were incubated for 30 minutes at room temperature and then 2 μl ATP (ADP Glo kit, end concentration 50 μM) were added. After another 240 minutes incubation at room temperature, 5 μl Promega ADP-Glo reagent I was added to quench the reaction and deplete unconsumed ATP. After an incubation period of 30 minutes, 10 μl Promega ADP-Glo detection reagent II was added resulting in conversion of ADP to ATP, which generates a light-reaction between luciferase and luciferin. Luminescence was quantified after 30 minutes with a Pherastar FS (BMG LABTECH, Ortenberg).
For the dose response experiments an IC50 value with 95% confidence interval was calculated using the 4-parameter logistic model according to Ratkowsky and Reedy with constraints for lower and upper asymptotes at 0% and 100%. The adjustment was obtained by nonlinear regression using the Levenberg Marquardt algorithm.

Test [2] relates to U937 cells. Put plainly: Cellular assay in U937 cells: activity of RIPK1 inhibitors on TNFα/zVAD.fmk-induced cell death (necroptosis), CellTiter 96 AQueous (MTS) readout. The following applies: read-out: U937 cell assay IC50. The source says:
Upon TNF-Receptor I ligation, Ser/Thr kinase RIPK1 is recruited to a transient receptor complex 1. Upon modification of RIPK1 which promotes activation of RIPK1, complex IIb can form, that involves recruitment of RIPK3 and MLKL (mixed lineage-kinase domain-like protein) which then translocates from the cytosol to the plasma membrane to execute cell death (Cai, Z. et al, Nat. Cell Biol. (2014) 16:55-65).
Cell death was quantified in 96 well plates by determination of the amount of live cell using a CellTiter 96 AQueous reagent (Promega), a calorimetric method to measure the number of live cells by reducing tetrazolium compound [3-(4,5-dimethylthiazol-2-yl)-5-(3-carboxymethoxyphenyl)-2-(4-sulfophenyl)-2H-tetrazolium, inner salt; MTS] into formazan. Absorbance of formazan was read at 490 nm. The inhibitory activity of the test compound was quantified in a concentration response curve (CRC) experiment. […]
CellTiter 96 Aqueous reagent was mixed (100 μl PMS (phenazine methosulfate) solution/2 ml MTS (3-(4,5-[…])-5-(3-carboxymethoxyphenyl)-2-(4-sulfophenyl)-2H-tetrazolium, inner salt) solution) and 20 μl were added per well. […] (5% CO2 95% rH) optical density was measured at 490 nm on a microplate reader (Tecan Infinite M1000).
The % inhibition is expressed as percentage of the maximal inhibition value obtained in the absence of TNFα/zVAD.fmc. […]

As usually defined, the IC50 is the concentration that inhibits the measured activity by half. Regarding `Cc1nc2cc(C[C@H]3CC[C@H](C(=O)N4OCC[C@H]4c4ccc(F)cc4)CC3)ccn2n1`, the IC50 in test [1] was found to be 18 nM; in test [2] it was 24 nM.
For `Cc1nccn1-c1cc(C[C@H]2CC[C@H](C(=O)N3OCC[C@H]3c3cc(F)cc(C#N)c3)CC2)ncn1` the same measures were 25 nM and 65 nM.
